Experimental data published in patent US20050004215A1, “Amorphous simvastatin calcium and methods for the preparation thereof” (priority 2003, published 2005).

Conditions: room temperature, closed container under nitrogen

Question: Which stability during storage does the source give for “amorphous calcium salt of dihydroxy open acid simvastatin [amorphous simvastatin calcium]” here?
Answer: The stability during storage was “stable”.
